# Apparent affinities of Ab-14 variants for a coronavirus HR2 peptide

Target: peptide PDVDLGDISGINAS, taken from heptad repeat 2 (HR2) of SARS-CoV-2 spike.

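Phage display of a naive human antibody library on the peptide gave the parent. Designed CDR sequences, proposed from the first random library and measured here. Several design methods are mixed in this list. The scFvs were displayed on barcoded MATa yeast, the peptide on MATalpha yeast. Binding brings cells together so that they mate, and sequencing counts the barcode pairs among the diploids. Scores were corrected for input abundance and mapped to Kd with protein pairs of known affinity run in the same pool. Mating was done six times.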

Each scFv is VH, a (GGGGS)3 linker, VL, as in the parent Ab-14, and differs from it in the CDRs of the light chain only.
VH: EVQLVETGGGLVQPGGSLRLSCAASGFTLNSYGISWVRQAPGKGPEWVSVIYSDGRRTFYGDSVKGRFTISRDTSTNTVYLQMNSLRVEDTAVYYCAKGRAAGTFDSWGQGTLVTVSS
VL: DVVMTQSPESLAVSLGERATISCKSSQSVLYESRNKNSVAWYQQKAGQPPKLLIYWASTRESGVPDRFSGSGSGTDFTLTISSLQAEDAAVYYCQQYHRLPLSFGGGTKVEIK

Variants are written as CDR1, CDR2 and CDR3 of the light chain (limits as in the source). Parent: KSSQSVLYESRNKNSVA, WASTRES, QQYHRLPLS.
This list holds designs with more than six substitutions.
The read-out is the apparent dissociation constant on a log10 scale (nM): the lower, the stronger.
An entry "nd" has no value in the source: the pair was not observed among the diploids in that replicate. This suggests poor binding but is not conclusive.

For QLLMATLQGTYNRNSVA / HAETRND / QSYHRLPLS, the assay gave 1.36, 1.63, 2.60, 1.69, 1.91, 1.77 (controls 0 of 18). With KLSMITGHMRMAKDNVA / EMVTREK / QQYNRLPLS the result was 0.43, 0.13, 0.02, 0.28, -0.03, 0.46 (controls 0 of 18). With MLSDTVMQGSYYKNSVA / QESTRAD / QQYHRLPLS the result was 0.41, 0.20, 0.17, -0.14, 0.15, 0.26 (controls 1 of 18). Variant VLSASELYEDRPKNSVA / NASTRMQ / QQYHRLPLS showed -0.10, -0.07, -0.13, -0.29, -0.19, -0.09 (controls 3 of 18). For KISQMVNFETTHINAVA / QMSTREE / QQYFRLPLS, the assay gave 0.83, 0.37, 0.32, 0.39, 0.36, 0.78 (controls 0 of 18). Variant KIDQSELEESRNKNSVA / WATVRED / QQYHRLPLS showed 0.45, 0.43, 0.24, 0.29, 0.21, 0.47 (controls 3 of 18).

Variant RVTNEFGKEMERKNSVA / HTDQRCM / QQYFRLPLI gave 1.01, 0.61, 0.65, 0.68, 0.55, 0.58 (controls 3 of 18). Variant MISQLYNMGTFAINSVA / QASIRNA / QQYDRLPLM gave 0.56, 1.16, 1.61, 0.36, 0.67, 1.16 (controls 1 of 18). For QLQLQPLFGAQAQSSIA / DVSEADM / QQYARLPLH, the assay gave nd, 1.58, 1.72, 1.76, 2.55, nd (controls 1 of 18). With HFAHPWQSGYESKQNVA / NGSTVMT / QHYNRLPLS the result was 0.83, 0.99, 0.66, 0.59, 1.33, 0.71 (controls 2 of 18). Variant MLWQQMEGFNGVKDAIA / NAEEREG / QQYGRLPLS showed 1.28, 1.59, 1.41, 1.71, 1.62, 1.35 (controls 3 of 18). With KVSIMDDGGDRNKNSVA / HASLRES / QQYHRLPLS the result was 0.13, -0.24, -0.08, -0.53, -0.20, -0.06 (controls 1 of 18).

For KISYMGEHFSTNHSAIA / QASTREA / QQYHRLPIS, the assay gave 1.58, 1.69, nd, 1.62, 1.50, 2.12 (controls 0 of 18). Variant KLSQITGHLSVSKNNVA / EMVTREN / QQYDRLPLS showed 1.67, 1.78, 1.81, 1.21, 1.48, 1.11 (controls 0 of 18). Variant KINERMRSGENIQHSIA / NATEIVH / QQYHNLPLG gave 1.52, 1.37, 1.54, 2.07, 2.03, 1.62 (controls 0 of 18). For HITYGMYVSGRYKSNIA / QAEERAK / QQYDRLPLM, the assay gave 1.12, 0.64, 0.43, 0.32, 0.52, 1.27 (controls 0 of 18). With HISNMQAYGYSAYNSVA / DNENKLN / QQYIRLPLT the result was 0.29, 0.44, -0.28, -0.15, -0.14, -0.20 (controls 0 of 18). For KLSQSVWYLERNKNNVA / NASYRES / QQYHRLPLS, the assay gave 0.21, -0.02, 0.01, -0.15, -0.06, 0.14 (controls 1 of 18).

Variant MFSQLMGYGSRYKNSVA / QASTRED / QQYHWLPLS showed 2.10, 1.58, 0.68, 0.93, 0.98, 1.82 (controls 0 of 18). Variant QLLMATMQGSYNRNSVA / HAQTRND / QSYHRLPLS showed 1.81, 1.60, 1.66, 2.66, 1.69, 1.46 (controls 2 of 18). Variant HLELEYMQMMKDHNSIA / DTESKTR / QQYFRLPIS showed 0.97, 0.63, 0.83, 0.50, 0.58, 0.60 (controls 2 of 18). Variant KISQMVRVGATHSNSIA / EEATRAK / QQYHRLPLA gave 1.40, 1.25, 1.03, 1.47, 1.19, 1.35 (controls 2 of 18). Variant KLGYNTGTESFRKDNIA / DNDLRAR / QQYHRLPLS gave 1.17, 0.78, 0.71, 0.54, 0.59, 0.73 (controls 0 of 18). With KLSSSWLYEQRNMNSVA / QASQRLR / QQYHRLPLS the result was 0.79, 0.53, 0.46, 0.45, 0.51, 0.53 (controls 1 of 18).

Variant KFFQSWLYEQRQVNSVA / NASQRLD / QQYHRLPLS showed 0.72, 0.63, 0.64, 0.61, 0.48, 0.75 (controls 2 of 18). For TISQLMNMGQFAINSVA / QASIRNH / QQYDRLPLT, the assay gave 0.93, 0.99, 1.47, 1.18, 1.29, 1.49 (controls 1 of 18). Variant RLMNWGPDQIQHANSIA / DRDEVDS / QQYAHLPLS gave nd, 0.59, nd, -0.51, -0.26, nd (controls 0 of 18). Variant KQSQSQLYEDGNGNSVA / NASVRES / QQYHRLPLS showed 0.62, 0.64, 0.83, 0.53, 0.72, 0.90 (controls 1 of 18). For HVHMEMAEWKEILNNVA / DASMRFA / QQYFRLPLG, the assay gave 2.48, 1.08, 1.17, 0.82, 1.02, 1.34 (controls 1 of 18). Variant KLSSHYFESYGERQAVA / ENEATMN / QQYSLLPLS gave 2.02, nd, 1.43, 2.54, 2.90, 3.59 (controls 1 of 18).

Variant KLPHLSFVHDREKNNVA / DLNVKAA / QQYDRLPLA gave 0.64, 0.95, 0.62, 0.30, 0.60, 0.94 (controls 0 of 18). With MISPSVMYGYRNLNSVA / QTQTREN / QQYNRLPLS the result was -0.21, -0.12, -0.28, -0.27, -0.21, 0.37 (controls 0 of 18). Variant KMEQGQLYESRNKGSVA / GASVRES / QQYHRLPLS gave 0.06, 0.11, 0.03, -0.25, 0.22, 0.09 (controls 4 of 18). Variant KIMQTLNYESFNVSSVA / GQETRER / QSYHRLPLS showed 1.68, 1.14, 0.69, 1.00, 0.65, 1.58 (controls 0 of 18). Variant IVSQLMLWGIHAKNSIA / EAQMRLN / QQYDRLPLF showed nd, nd, 1.11, nd, nd, nd (controls 0 of 18). Variant RFQQWSLESNNTEKSIA / SASHREQ / QQYARLPLF showed 0.81, 0.91, 0.63, 0.73, 0.81, 0.79 (controls 0 of 18).

For HLGLVTMLEEAVRNSVA / NNSTRED / QQYDRLPLS, the assay gave 1.53, 1.59, 1.52, 2.15, 2.16, 1.99 (controls 2 of 18). Variant KLGEQERMNGMANKNVA / AMNTRVD / QEYHRLPLI showed 0.31, 0.23, 0.16, 0.25, 0.30, 0.43 (controls 0 of 18). Variant QITNQTAGIMNGIDSIA / EETNLTT / QQYGHLPLS gave nd, nd, nd, nd, nd, nd (controls 1 of 18). Variant KVSEFMRGLMSKQDSIA / DNVTRNS / QQYDRLPLS gave 1.90, nd, nd, 2.36, 2.58, 3.01 (controls 1 of 18). Variant NVGQLMDGETRNKNSVA / HQSTRED / QHYHRLPLI gave 0.96, 0.68, 0.24, 0.13, 0.97, 0.42 (controls 0 of 18). Variant NLQYLEENSLIGASAIA / DVSIAVM / QQYSRLPLA showed 1.07, 1.28, 1.28, 0.88, 1.31, 0.92 (controls 1 of 18).

With KLVNFMNRGTHHTSNIA / DAQTRLD / QQYYRLPLA the result was 0.83, 0.81, 0.84, 0.54, 0.75, 0.70 (controls 0 of 18). With AHDHTEGSGKNADANVA / GDEQRAP / QQYHHLPLS the result was nd, 1.33, 1.06, 1.22, 3.26, 2.57 (controls 1 of 18). Variant TISGVMQNMSHSKNNVA / EVSMRFD / QQYFRLPLE gave 1.71, 1.30, 1.72, 1.13, 1.84, 1.49 (controls 0 of 18). Variant KVSMLDDGGSRNKNSVA / HAHTRES / QQYHRLPLS showed 0.37, 0.27, 0.45, 0.12, 0.98, 0.64 (controls 1 of 18). For HLGNEGDNQGNAKKSVA / DQSTVQL / QHYSRLPLT, the assay gave nd, 2.42, nd, 2.45, nd, nd (controls 0 of 18). For KMDQSVLYYSNNKKSVA / NASTREM / QQYHRLPLS, the assay gave 0.62, 0.29, 0.36, 0.15, 0.21, 0.78 (controls 1 of 18).

Variant KFSQMVNSLSVSNSAVA / EMSTRPE / QQYNRLPLS showed 0.64, 0.43, 1.27, 0.95, 0.99, 0.78 (controls 0 of 18). With NVSIKEPGNWRMWDSVA / HSSLRAE / QQYWRLPLM the result was 0.79, 0.77, 0.71, 0.56, 0.71, 0.84 (controls 0 of 18).

The range of this assay differs from that of the first round, and the authors advise against merging the two.
Nonspecific signal, from three strains lacking the peptide, appeared in 4% of pairings of all light chain designs, centred on 2.64 (5% of these signals below 1.59); values are not corrected for it. The control count says in how many pairings with the empty strains this scFv gave a signal.
The parent sequence was in this pool as ten entries: three were never detected, three once, and four in most replicates, with averages from 0.34 to 2.37.
In the paper, a design with two or fewer of six values counts as a poor binder.

Data: MIT Lincoln Laboratory AlphaSeq set, Li et al. 2023, doi:10.1038/s41467-023-39022-2, as distributed in FLAb.